# Assay results published in patent publication US8609678B2, “Reverse amide compounds as protein deacetylase inhibitors and methods of use thereof” (Acetylon Pharmaceuticals, priority 2010, dated 2013).
# The chains behind the UniProt entries cited, without tags or fusion partners. Where a name states a change or a piece, a line headed by the entry shows the natural chain unless it says otherwise.
# UniProt Q9UBN7: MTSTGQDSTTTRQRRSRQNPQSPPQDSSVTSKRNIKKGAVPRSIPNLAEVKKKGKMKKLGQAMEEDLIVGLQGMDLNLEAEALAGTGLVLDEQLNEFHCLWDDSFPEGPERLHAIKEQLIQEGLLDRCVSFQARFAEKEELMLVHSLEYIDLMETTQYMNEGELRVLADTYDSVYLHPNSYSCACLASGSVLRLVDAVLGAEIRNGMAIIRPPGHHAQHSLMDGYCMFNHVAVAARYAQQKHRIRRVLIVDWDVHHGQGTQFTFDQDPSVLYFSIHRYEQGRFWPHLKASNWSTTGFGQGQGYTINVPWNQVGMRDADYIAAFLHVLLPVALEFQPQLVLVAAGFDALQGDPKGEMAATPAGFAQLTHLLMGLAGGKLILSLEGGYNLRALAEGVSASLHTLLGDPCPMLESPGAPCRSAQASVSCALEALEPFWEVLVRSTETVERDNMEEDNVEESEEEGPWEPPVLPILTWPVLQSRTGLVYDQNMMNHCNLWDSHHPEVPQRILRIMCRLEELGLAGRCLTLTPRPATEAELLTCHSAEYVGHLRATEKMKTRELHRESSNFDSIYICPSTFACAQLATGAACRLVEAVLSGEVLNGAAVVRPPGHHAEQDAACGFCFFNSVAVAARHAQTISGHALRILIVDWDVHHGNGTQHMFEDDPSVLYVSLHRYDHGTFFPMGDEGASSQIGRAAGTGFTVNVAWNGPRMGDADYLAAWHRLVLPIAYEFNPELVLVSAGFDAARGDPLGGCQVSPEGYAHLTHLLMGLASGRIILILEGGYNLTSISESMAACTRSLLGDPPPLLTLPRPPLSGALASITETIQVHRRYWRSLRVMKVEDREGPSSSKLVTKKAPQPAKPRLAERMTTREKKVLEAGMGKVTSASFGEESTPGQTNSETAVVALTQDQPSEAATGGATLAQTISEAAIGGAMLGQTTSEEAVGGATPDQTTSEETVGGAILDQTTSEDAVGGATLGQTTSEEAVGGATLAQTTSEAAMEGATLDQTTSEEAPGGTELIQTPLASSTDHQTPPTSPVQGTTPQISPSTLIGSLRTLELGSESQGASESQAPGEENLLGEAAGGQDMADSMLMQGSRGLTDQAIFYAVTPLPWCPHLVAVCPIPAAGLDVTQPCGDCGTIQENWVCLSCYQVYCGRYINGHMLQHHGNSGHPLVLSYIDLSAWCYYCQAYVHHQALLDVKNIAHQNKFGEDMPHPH
# Target: HDAC6 (Homo sapiens (Human), UniProt Q9UBN7)
# Assay: HDAC enzyme assay, HDAC6
# Conditions: not given
row,IC50,SMILES
1,110 nM,O=C(CCCCCCCNC(=O)c1ccc(N(c2ncccn2)c2ncccn2)cc1)NO [4-(dipyrimidin-2-ylamino)-N-(8-(hydroxyamino)-8-oxooctyl)benzamide]

# Same assay, conditions: read-out: IC50(nM) HDAC6; 2 ng/ml enzyme, 14 μM tripeptide substrate
row,IC50,SMILES
1,3 nM,O=C(CCCCCCNC(=O)c1ccc(N(c2ccccc2)c2ncccn2)cc1)NO [N-(7-(hydroxyamino)-7-oxoheptyl)-4-(phenyl(pyrimidin-2-yl)amino)benzamide]
2,12 nM,O=C(CCCCCCNC(=O)c1ccc(N(c2ccccc2)c2cncnc2)cc1)NO [N-(7-(hydroxyamino)-7-oxoheptyl)-4-(phenyl(pyrimidin-5-yl)amino)benzamide]
3,21 nM,CN(c1ccc(C(=O)NCCCCCCC(=O)NO)cc1)c1cnccn1 [N-(7-(hydroxyamino)-7-oxoheptyl)-4-(methyl(pyrazin-2-yl)amino)benzamide]
4,3 nM,CN(c1ccc(C(=O)NCCCCCCC(=O)NO)cc1)c1ccccc1C(F)(F)F [N-(7-(hydroxyamino)-7-oxoheptyl)-4-(methyl(2-(trifluoromethyl)phenyl)amino)benzamide]
5,6 nM,CN(c1ccccc1)c1ncc(C(=O)NCCCCCCC(=O)NO)cn1 [N-(7-(hydroxyamino)-7-oxoheptyl)-2-(methyl(phenyl)amino)pyrimidine-5-carboxamide]
6,7 nM,CC(O)(c1ccc(C(=O)NCCCCCCC(=O)NO)cc1)c1ccccn1 (stereo not drawn) [4-(1-hydroxy-1-(pyridin-2-yl)ethyl)-N-(7-(hydroxyamino)-7-oxoheptyl)benzamide]
7,13 nM,O=C(CCCCCCNC(=O)c1cnc(N2CCN(CCO)CC2)nc1)NO [N-(7-(hydroxyamino)-7-oxoheptyl)-2-(4-(2-hydroxyethyl)piperazin-1-yl)pyrimidine-5-carboxamide]
8,33 nM,"Cc1cccc(C)c1Nc1ncc(C(=O)NCCCCCCC(=O)NO)cn1 [2-(2,6-dimethylphenylamino)-N-(7-(hydroxyamino)-7-oxoheptyl)pyrimidine-5-carboxamide]"
9,18 nM,O=C(CCCCCCNC(=O)c1ccc(N(c2ccccc2)c2ccccc2)cc1)NO [4-(diphenylamino)-N-(7-(hydroxyamino)-7-oxoheptyl)benzamide]
10,5 nM,O=C(CCCCCCNC(=O)c1cnc(N2CCCCC2)nc1)NO [N-(7-(hydroxyamino)-7-oxoheptyl)-2-(piperidin-1-yl)pyrimidine-5-carboxamide]
11,14 nM,O=C(CCCCCCNC(=O)c1ccc(N(c2ccccc2)c2ccccn2)cc1)NO [N-(7-(hydroxyamino)-7-oxoheptyl)-4-(phenyl(pyridin-2-yl)amino)benzamide]
12,7 nM,O=C(CCCCCCNC(=O)c1cnc(N2CCC[C@H]2CO)nc1)NO [(S)-N-(7-(hydroxyamino)-7-oxoheptyl)-2-(2-(hydroxymethyl)pyrrolidin-1-yl)pyrimidine-5-carboxamide]
13,4 nM,O=C(CCCCCCNC(=O)c1cnc(N2CCN(c3ccccc3)CC2)nc1)NO [N-(7-(hydroxyamino)-7-oxoheptyl)-2-(4-phenylpiperazin-1-yl)pyrimidine-5-carboxamide]
14,5 nM,CN1CCN(c2ncc(C(=O)NCCCCCCC(=O)NO)cn2)C(c2ccccc2)C1 (stereo not drawn) [N-(7-(hydroxyamino)-7-oxoheptyl)-2-(4-methyl-2-phenylpiperazin-1-yl)pyrimidine-5-carboxamide]

# The remaining lines, values behind:
row,SMILES,IC50
1,"Cc1cccc(C)c1N(C)c1ccc(C(=O)NCCCCCCC(=O)NO)c(F)c1 [4-((2,6-dimethylphenyl)(methyl)amino)-2-fluoro-N-(7-(hydroxyamino)-7-oxoheptyl)benzamide]",5 nM
2,"COC(c1ccccc1)(c1ccc(C(=O)NCCCCCCC(=O)NO)cc1)c1ccc(C(=O)N(C)C)cc1 (stereo not drawn) [4-((4-(7-(hydroxyamino)-7-oxoheptylcarbamoyl)phenyl)(methoxy)(phenyl)methyl)-N,N-dimethylbenzamide]",4 nM
3,O=C(CCCCCCNC(=O)c1ccc(C(c2ccccc2)c2ccccc2)cc1)NO [4-benzhydryl-N-(7-(hydroxyamino)-7-oxoheptyl)benzamide],22 nM
4,COC(c1ccccc1)(c1ccncc1)c1ccc(C(=O)NCCCCCCC(=O)NO)cc1 (stereo not drawn) [N-(7-(hydroxyamino)-7-oxoheptyl)-4-(methoxy(phenyl)(pyridin-4-yl)methyl)benzamide],3 nM
5,"CN(CCCCCCC(=O)NO)C(=O)c1ccc(C(O)(c2cc(F)cc(F)c2)c2cc(F)cc(F)c2)cc1 [4-(bis(3,5-difluorophenyl)(hydroxy)methyl)-N-(7-(hydroxyamino)-7-oxoheptyl)-N-methylbenzamide]",15 nM
6,"COC(c1ccccc1)(c1ccc(C(=O)NCCCCCCC(=O)NO)cc1)c1cccc(C(=O)N(C)C)c1 (stereo not drawn) [3-((4-(7-(hydroxyamino)-7-oxoheptylcarbamoyl)phenyl)(methoxy)(phenyl)methyl)-N,N-dimethylbenzamide]",3 nM
7,CN(CCCCCCC(=O)NO)C(=O)c1ccc(N(c2ccccc2)c2ccccc2)cc1 [4-(diphenylamino)-N-(7-(hydroxyamino)-7-oxoheptyl)-N-methylbenzamide],82 nM
8,CCOC(c1ccc(C(=O)N(C)CCCCCCC(=O)NO)cc1)(c1ccccn1)c1ccccn1 [4-(ethoxydipyridin-2-ylmethyl)-N-(7-(hydroxyamino)-7-oxoheptyl)-N-methylbenzamide],45 nM
9,CN(CCCCCCC(=O)NO)C(=O)c1ccc(N(c2ccccc2)c2ncccn2)cc1 [N-(7-(hydroxyamino)-7-oxoheptyl)-N-methyl-4-(phenyl(pyrimidin-2-yl)amino)benzamide],18 nM
10,"CC(C)c1cccc(C(C)C)c1Nc1ncc(C(=O)N(C)CCCCCCC(=O)NO)cn1 [2-(2,6-diisopropylphenylamino)-N-(7-(hydroxyamino)-7-oxoheptyl)-N-methylpyrimidine-5-carboxamide]",51 nM
11,CN(CCCCCCC(=O)NO)C(=O)c1ccc(C(O)(c2ccccc2F)c2ccccc2F)cc1 [4-(bis(2-fluorophenyl)(hydroxy)methyl)-N-(7-(hydroxyamino)-7-oxoheptyl)-N-methyl benzamide],9 nM
12,"O=C(CCCCCCNC(=O)c1ccc(Nc2c(F)cccc2F)cc1)NO [4-(2,6-difluorophenylamino)-N-(7-(hydroxyamino)-7-oxoheptyl)benzamide]",3 nM
13,"CN(c1ccc(C(=O)NCCCCCCC(=O)NO)cc1)c1c(F)cccc1F [4-((2,6-difluorophenyl)(methyl)amino)-N-(7-(hydroxyamino)-7-oxoheptyl) benzamide]",2 nM
14,"Cc1cccc(C)c1N(C)c1ccc(C(=O)N(C)CCCCCCC(=O)NO)c(F)c1 [4-((2,6-dimethylphenyl)(methyl)amino)-2-fluoro-N-(7-(hydroxyamino)-7-oxoheptyl)-N-methylbenzamide]",9 nM
15,CN(CCCCCCC(=O)NO)C(=O)c1ccc(N(C)c2ccccc2C#N)cc1 [4-((2-cyanophenyl)(methyl)amino)-N-(7-(hydroxyamino)-7-oxoheptyl)-N-methylbenzamide],35 nM
16,"CN(CCCCCCC(=O)NO)C(=O)c1ccc(C(O)(c2ccc(F)cc2F)c2ccc(F)cc2F)cc1 [4-(bis(2,4-difluorophenyl)(hydroxy)methyl)-N-(7-(hydroxyamino)-7-oxoheptyl)-N-methylbenzamide]",13 nM
17,"Cc1cccc(C)c1Nc1ccc(C(=O)N(C)CCCCC(=O)NO)cc1 [4-(2,6-dimethylphenylamino)-N-(5-(hydroxyamino)-5-oxopentyl)-N-methylbenzamide]",363 nM
18,CN(CCCCCCC(=O)NO)C(=O)c1ccc(C(c2ccccc2)c2ccccc2)cc1 [4-benzhydryl-N-(7-(hydroxyamino)-7-oxoheptyl)-N-methylbenzamide],47 nM
